Values quoted from earlier work as cited in paper PMC11054638, “Transport of Non-Steroidal Anti-Inflammatory Drugs across an Oral Mucosa Epithelium In Vitro Model” (Pharmaceutics, 2024).

System: MRP4 (ABCC4)
Settings: cited from earlier work

## O=C(O)Cc1ccccc1Nc1c(Cl)cccc1Cl [diclofenac]
  inhibitory effect on MRP4 function: weaker in comparison to ibuprofen
